One sequence from ChEMBL document CHEMBL1671722, “Comparative in vitro activity profiles of novel bis-indole antibacterials against gram-positive and gram-negative clinical isolates” (Antimicrob Agents Chemother, 2010) can be followed below.

This assay has as its system Escherichia coli. The experiment in a line: Antimicrobial activity against Escherichia coli by broth microdilution method. Format: functional.

For orientation: MIC means the least concentration at which growth counts as inhibited. Low readings indicate inhibition by little substance, high ones a need for much substance. GENTAMICIN showed a minimum inhibitory concentration (MIC) of 0.5 µg/mL.
